Like-named read-outs stand apart in the source and are kept apart here.
Columns and labels:
[1] = foam
[2] = cited from earlier work

For Stannous di(2-ethylhexanoate), the elongation [1] was 97%, the “% Elongation” value ([1]; catalyst 0.23 pphp) was 97% and the Density ([1]; catalyst 0.23 pphp) was 1.31 lbs/ft3. For the same substance, the Permeability ([1]; catalyst 0.23 pphp) was 0.7 scfm, the Resiliency ([1]; catalyst 0.23 pphp) was 30% and the Tensile ([1]; catalyst 0.23 pphp) was 14 psi. The “CMR classification” value ([2]; Effective Jan. 11, 2023) was “Reprotox. of Cat. 1B”, the CMR classification ([2]; current) was “reprotoxicant of category 2” and the “CMR classification” value ([2]; reproductive toxicity / CMR status, current or as in Comments) was “Reprotox. of Cat. 2”. The CMR classification ([2]; will be classified in 2023, Europe) was “reprotoxicant of category 1B”.
